Results from patent publication US10442819B2, “Tricyclic compounds as inhibitors of mutant IDH enzymes” (Merck Sharp & Dohme Corp., priority 2014, dated 2019).

Sequences of proteins named here, by UniProt entry; tags and fusion partners are left off.
UniProt O75874, whole entry R132H: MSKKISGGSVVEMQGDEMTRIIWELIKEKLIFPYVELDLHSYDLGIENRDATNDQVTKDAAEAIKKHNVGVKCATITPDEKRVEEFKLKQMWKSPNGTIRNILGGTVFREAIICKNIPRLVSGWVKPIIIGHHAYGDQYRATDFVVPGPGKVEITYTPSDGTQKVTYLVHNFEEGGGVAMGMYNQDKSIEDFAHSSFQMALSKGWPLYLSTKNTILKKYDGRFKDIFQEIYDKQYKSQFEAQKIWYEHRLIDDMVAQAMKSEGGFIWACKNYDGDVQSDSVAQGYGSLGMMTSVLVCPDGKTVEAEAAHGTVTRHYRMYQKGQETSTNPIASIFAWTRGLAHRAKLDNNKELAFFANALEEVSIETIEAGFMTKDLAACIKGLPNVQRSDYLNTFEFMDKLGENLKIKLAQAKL

Biological target: R132H mutant IDH1 enzyme (Homo sapiens (Human), UniProt O75874, R132H)
Test: R132H IDH1 Enzymatic Assay
Assay type: biochemical
Settings: R132H mutant IDH1 enzyme 1.5 nM final; luminescence readout; read-out: IC50

| SMILES | IC50 |
| --- | --- |
| CO[C@H]1CC[C@H](C(=O)N2Cc3cccnc3Nc3ccc(-c4cnc5cc[nH]c5c4)cc32)CC1 [Example 409, 6-[(trans-4-methoxycyclohexyl)carbonyl]-8-(1H-pyrrolo[3,2-b]pyridin-6-yl)-6,11-dihydro-5H-pyrido[2,3-b][1,5]benzodiazepine] | 44 nM |
| CO[C@H]1CC[C@H](C(=O)N2Cc3cccnc3Nc3ccc(-c4cnn(CC(C)C)c4)cc32)CC1 [Example 356, 6-[(trans-4-methoxycyclohexyl)carbonyl]-8-[1-(2-methylpropyl)-1H-pyrazol-4-yl]-6,11-dihydro-5H-pyrido[2,3-b][1,5]benzodiazepine] | 55 nM |
| CO[C@H]1CC[C@H](C(=O)N2Cc3cccnc3Nc3ccc(N4CCOCC4C4CC4)cc32)CC1 (stereo partly drawn) [Example 295, 8-(3-cyclopropylmorpholin-4-yl)-6-[(trans-4-methoxycyclohexyl)carbonyl]-6,11-dihydro-5H-pyrido[2,3-b][1,5]benzodiazepine] | 428 nM |
| O=C([C@H]1CC[C@H](NC(C2CC2)C(F)(F)F)CC1)N1Cc2cccnc2Nc2ccc(N3CCOCC3)cc21 (stereo partly drawn) [Example 445, trans-N-[1-cyclopropyl-2,2,2-trifluoroethyl]-4-[(8-morpholin-4-yl-5,11-dihydro-6H-pyrido[2,3-b][1,5]benzodiazepin-6-yl)carbonyl]cyclohexanamine] | 95 nM |
| CC(C)O[C@H]1CC[C@H](C(=O)N2Cc3cccnc3Nc3ccc(CC#N)cc32)OC1 [Example 139, 2-(6-((2R,5S)-5-isopropoxytetrahydro-2H-pyran-2-carbonyl)-6,11-dihydro-5H-benzo[b]pyrido[2,3-e][1,4]diazepin-8-yl)acetonitrile] | 91 nM |
| CO[C@H]1CC[C@@H](C(=O)N2Cc3cccnc3Nc3ccc(N4CCOCC4)cc32)[C@@H](C)[C@H]1C (single isomer, unassigned) [Example 108] | 505 nM |
| CCO[C@H]1CC[C@H](C(=O)N2Cc3cccnc3Nc3ccc(N4CC5CCC4CO5)cc32)CC1 (stereo partly drawn) [Example 305, 6-[(trans-4-ethoxycyclohexyl)carbonyl]-8-(2-oxa-5-azabicyclo[2.2.2]oct-5-yl)-6,11-dihydro-5H-pyrido[2,3-b][1,5]benzodiazepine] | 77 nM |
| CC(C)O[C@H]1CC[C@H](C(=O)N2Cc3cccnc3Nc3ccc(N4C5CCC4COC5)cc32)OC1 [Example 162, (8-(3-oxa-8-azabicyclo[3.2.1]octan-8-yl)-5,11-dihydro-6H-benzo[b]pyrido[2,3-e][1,4]diazepin-6-yl)((2R,5S)-5-isopropoxytetrahydro-2H-pyran-2-yl)methanone] | 49 nM |
| CC(C)C1CC(C(=O)N2Cc3cccnc3Nc3ccccc32)C1 (centres unmarked) [Example 56, 6-{[3-(1-methylethyl)cyclobutyl]carbonyl}-6,11-dihydro-5H-pyrido[2,3-b][1,5]benzodiazepine] | 492 nM |
| CO[C@H]1CC[C@](F)(C(=O)N2Cc3cccnc3Nc3ccc(N4CCOCC4)cc32)CC1 [Example 120, 6-[(cis-1-fluoro-4-methoxycyclohexyl)car-bonyl]-8-morpholin-4-yl-6,11-dihydro-5H-pyrido[2,3-b][1,5]benzodiazepine] | 298 nM |
| CCO[C@H]1CC[C@H](C(=O)N2Cc3cccnc3Nc3ccc(N4CC5COCC(C4)O5)cc32)CC1(F)F (single isomer, unassigned) [Example 336] | 18 nM |
| CO[C@H]1CC[C@H](C(=O)N2Cc3cccnc3Nc3ccc(N4CCN(CC(F)(F)F)CC4)cc32)CC1 [Example 238, 6-[(trans-4-methoxycyclohexyl)carbonyl]-8-[4-(2,2,2-trifluoroethyl)piperazin-1-yl]-6,11-dihydro-5H-pyrido[2,3-b][1,5]benzodiazepine] | 989 nM |
| COC1CC2(C1)CN(c1ccc3c(c1)N(C(=O)[C@H]1CC[C@H](OC(C)(C)C)CC1)Cc1cccnc1N3)C2 [Example 548, (Trans-4-tert-butoxycyclohexyl)[8-(6-methoxy-2-azaspiro[3.3]hept-2-yl)-5,11-dihydro-6H-pyrido[2,3-b][1,5]benzodiazepin-6-yl]methanone] | 21 nM |

More lines, in order of falling IC50, values ahead:

| IC50 | SMILES |
| --- | --- |
| 447 nM | CO[C@H]1CC[C@H](C(=O)N2Cc3cccnc3Nc3ccc(N(C)C4(C)COC4)cc32)CC1 [Example 280, 6-[(trans-4-methoxycyclohexyl)carbonyl]-N-methyl-N-(3-methyloxetan-3-yl)-6,11-dihydro-5H-pyrido[2,3-b][1,5]benzodiazepin-8-amine] |
| 300 nM | CO[C@H]1CC[C@H](C(=O)N2Cc3cccnc3Nc3ccc(N4CCN(C5(C(F)(F)F)CC5)CC4)cc32)CC1 [Example 244, 6-[(trans-4-methoxycyclohexyl)carbonyl] 8-{4-[1-(trifluoromethyl)cyclopropyl]piperazin-1-yl}-6,11-dihydro-5H-pyrido[2,3-b][1,5]benzodiazepine] |
| 286 nM | CO[C@H]1CC[C@H](C(=O)N2Cc3cccnc3Nc3ccc(N4CCCC(CN5CCOCC5)C4)cc32)CC1 (stereo partly drawn) [Example 245, 6-[(trans-4-methoxycyclohexyl)carbonyl]-8-[3-(morpholin-4-ylmethyl)piperidin-1-yl]-6,11-dihydro-5H-pyrido[2,3-b][1,5]benzodiazepine] |
| 221 nM | CC[C@H](N[C@H]1CC[C@@H](C(=O)N2Cc3cccnc3Nc3ccc(N4CCOCC4)cc32)CC1)C(F)(F)F [Example 450, cis-4-[(8-morpholin-4-yl-5,11-dihydro-6H-pyrido[2,3-b][1,5]benzodiazepin-6-yl)carbonyl]-N-[(1S)-1-(trifluoromethyl)propyl]-cyclohexanamine] |
| 191 nM | COC[C@H]1CCCN1c1ccc2c(c1)N(C(=O)[C@H]1CC[C@H](OC)CC1)Cc1cccnc1N2 [Example 261, 6-[(trans-4-methoxycyclohexyl)carbonyl]-8-[(2R)-2-(methoxymethyl)pyrrolidin-1-yl]-6,11-dihydro-5H-pyrido[2,3-b][1,5]benzodiazepine] |
| 139 nM | CO[C@H]1CC[C@H](C(=O)N2Cc3cccnc3Nc3ccc(-c4cnn(C)c4)cc32)CC1 [Example 183, 6-[(trans-4-methoxycyclohexyl)carbonyl]-8-(1-methyl-1H-pyrazol-4-yl)-6,11-dihydro-5H-pyrido[2,3-b][1,5]benzodiazepine] |
| 120 nM | CO[C@@H]1[C@H](C)C[C@H](C(=O)N2Cc3cccnc3Nc3ccc(N4CCOCC4)cc32)C[C@@H]1C [Example 124, 6-{[(1r,3R,4s,5S)-4-methoxy-3,5-dimethylcyclohexyl]car-bonyl}-8-morpholin-4-yl-6,11-dihydro-5H-pyrido[2,3-b][1,5]benzodiazepine] |
| 93 nM | COC1CCC(C(=O)N2Cc3cccnc3Nc3ccc(C[C@H]4CCOC4)cc32)CC1 (single isomer, unassigned) [Example 420] |
| 88 nM | CCCO[C@H]1CC[C@@H](C(=O)N2Cc3cccnc3Nc3ccc(N4C[C@@H]5C[C@H]4CO5)cc32)CC1 [Example 316, 8-[(1S,4S)-2-oxa-5-azabicyclo[2.2.1]hept-5-yl]-6-[(cis-4-propoxycyclohexyl)carbonyl]-6,11-dihydro-5H-pyrido[2,3-b][1,5]benzodiazepine] |
| 54 nM | COCC(OC)c1ccc2c(c1)N(C(=O)[C@H]1CC[C@H](OC(C)C)CO1)Cc1cccnc1N2 (stereo partly drawn) [Example 18, (8-(1,2-dimethoxyethyl)-5,11-dihydro-6H-benzo[b]pyrido[2,3-e][1,4]diazepin-6-yl)((2R,5S)-5-isopropoxytetrahydro-2H-pyran-2-yl)methanone] |
| 46 nM | CCO[C@H]1CC[C@H](C(=O)N2Cc3cccnc3Nc3ccc(C4CCOCC4)cc32)CC1 [Example 382, 6-[(trans-4-ethoxycyclohexyl)carbonyl]-8-(tetrahydro-2H-pyran-4-yl)-6,11-dihydro-5H-pyrido[2,3-b][1,5]benzodiazepine] |
| 43 nM | CC(C)O[C@H]1CC[C@H](C(=O)N2Cc3cccnc3Nc3ccc(N4CC5(CCCOC5)C4)cc32)CC1 [Example 318, 6-{[trans-4-(1-methylethoxy)cyclohexyl]car-bonyl}-8-(6-oxa-2-azaspiro[3.5]non-2-yl)-6,11-dihydro-5H-pyrido[2,3-b][1,5]benzodiazepine] |
| 38 nM | CCC(C)O[C@H]1CC[C@H](C(=O)N2Cc3cccnc3Nc3ccc(N4CCOCC4)cc32)CC1 (stereo partly drawn) [Example 156, 6-[(trans-4-{[1-methylpropyl]oxy}cyclo-hexyl)carbonyl]-8-morpholin-4-yl-6,11-dihydro-5H-pyrido[2,3-b][1,5]benzodiazepine] |
| 36 nM | CC(C)O[C@H]1CC[C@H](C(=O)N2Cc3cccnc3Nc3ccc(C4COC5CC5O4)cc32)OC1 (stereo partly drawn) [Example 31, (8-(2,5-dioxabicyclo[4.1.0]heptan-3-yl)-5,11-dihydro-6H-benzo[b]pyrido[2,3-e][1,4]diazepin-6-yl)((2R,5S)-5-isopropoxytetrahydro-2H-pyran-2-yl)methanone] |
| 36 nM | CC(N1CCC(C(=O)N2Cc3cccnc3Nc3ccc(N4CCOCC4)cc32)CC1)C(F)(F)F (centres unmarked) [Example 151, 8-morpholin-4-yl-6-{[1-(2,2,2-trifluoro-1-methylethyl)piperidin-4-yl]carbonyl}-6,11-dihydro-5H-pyrido[2,3-b][1,5]benzodiazepine] |
| 25 nM | CCO[C@@H]1CC[C@@H](C(=O)N2Cc3cccnc3Nc3ccc(N4CC5CCC(C4)O5)cc32)CC1(F)F [Example 159, 6-{[(1R,4R)-4-ethoxy-3,3-difluorocyclohexyl]car-bonyl}-8-(8-oxa-3-azabicyclo[3.2.1]oct-3-yl)-6,11-dihydro-5H-pyrido[2,3-b][1,5]benzodiazepine] |
| 17 nM | CC(C)O[C@H]1CC[C@H](C(=O)N2Cc3cccnc3Nc3ccc(N4C[C@@H]5CC[C@H]4CO5)cc32)OC1 (single isomer, unassigned) [Example 40] |
| 14 nM | CCO[C@H]1CC[C@@H](C(=O)N2Cc3cccnc3Nc3ccc(N4CC5COCC(C4)O5)cc32)CC1(F)F (single isomer, unassigned) [Example 337] |
| 6 nM | CCO[C@H]1CC[C@@H](C(=O)N2Cc3cccnc3Nc3ccc(N4C[C@@H]5CC[C@H]4CO5)cc32)C[C@@H]1F (single isomer, unassigned) [Example 322] |
